Measurements taken from publication PMC12254266.

By UniProt entry, the sequences of proteins in these tests, tags left out.
UniProt O14842, whole entry: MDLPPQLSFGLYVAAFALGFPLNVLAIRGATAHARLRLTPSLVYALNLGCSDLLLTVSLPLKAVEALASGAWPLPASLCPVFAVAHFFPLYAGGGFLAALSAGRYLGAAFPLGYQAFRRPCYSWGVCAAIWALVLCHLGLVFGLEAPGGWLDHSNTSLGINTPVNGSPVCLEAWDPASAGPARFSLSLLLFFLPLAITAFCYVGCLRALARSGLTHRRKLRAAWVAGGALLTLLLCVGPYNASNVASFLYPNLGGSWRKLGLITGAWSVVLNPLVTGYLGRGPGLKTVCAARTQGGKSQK

Assays:
FFA1-Nluc [1] = biological target: T1, FFA1-Nluc (Homo sapiens, UniProt O14842); assay: Ca2+ mobilisation antagonism of FFA1 agonists; format: cell-based; details: in words
FFA1-Nluc [2] = biological target: T1, FFA1-Nluc; assay: DISCo-BRET; format: binding
Nluc-FFA1 = Nluc-FFA1 (Homo sapiens, UniProt O14842); assay: NanoBRET binding

Structure (SMILES): CCCN1C(=O)c2ccccc2[C@@H](C(=O)O)[C@@H]1c1ccc(Oc2ccccc2)cc1 (relative stereo)
- antagonism of site one agonist (TUG-905) Ca2+ response (FFA1-Nluc [1]): only competitive with site one
- pIC50 DISCo-BRET NBD/Nluc (FFA1-Nluc [2]; 100 nM TUG-2591 and 316 nM TUG-2597, NC = No competition): 6.2±0.2
- pIC50 DISCo-BRET SulfoCy5/NBD (FFA1-Nluc [2]; 100 nM TUG-2591 and 316 nM TUG-2597, one site model, NC = No competition): 6.0±0.1
- 'bottom' of the IC50 curve, DISCo-BRET NBD/Nluc (FFA1-Nluc [2]; percentage of binding obtained in the absence of competing ligand): 3.8%
- pKi DISCo-BRET SulfoCy5/NBD (FFA1-Nluc [2]; using Kd TUG-2591 57 nM): 6.4±0.1
- 'bottom' of the IC50 curve fit, Nano-BRET TUG-2884 (Nluc-FFA1; percentage of binding in the absence of competing ligand, tracer TUG-2884 2 μM): -15%
- pIC50 Nano-BRET TUG-2884 (Nluc-FFA1; tracer TUG-2884 2 μM, NBD/Nluc, NC = No competition): 5.8±0.06
- pKi Nano-BRET TUG-2884 (Nluc-FFA1; using Kd TUG-2884 940 nM): 6.3±0.06
